Assay results: patent US8034936B2, “Spirocyclic cyclohexane compounds useful to treat substance dependency” (Gruenenthal GmbH, priority 2005, dated 2011)
Where two headings read alike, the source gives them in different places.

Amino acid sequences for entries named in this document (tags omitted).
UniProt P41146, whole entry: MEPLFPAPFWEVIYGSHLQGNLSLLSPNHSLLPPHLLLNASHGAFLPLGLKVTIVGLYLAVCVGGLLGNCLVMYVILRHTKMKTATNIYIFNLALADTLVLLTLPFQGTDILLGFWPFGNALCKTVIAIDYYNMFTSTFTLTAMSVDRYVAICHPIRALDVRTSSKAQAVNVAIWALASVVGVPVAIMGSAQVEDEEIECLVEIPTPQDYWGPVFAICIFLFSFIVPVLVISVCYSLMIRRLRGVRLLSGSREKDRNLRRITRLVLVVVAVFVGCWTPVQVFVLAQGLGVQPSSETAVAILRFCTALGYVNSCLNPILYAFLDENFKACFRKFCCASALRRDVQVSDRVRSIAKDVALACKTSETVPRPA
UniProt P35372, whole entry: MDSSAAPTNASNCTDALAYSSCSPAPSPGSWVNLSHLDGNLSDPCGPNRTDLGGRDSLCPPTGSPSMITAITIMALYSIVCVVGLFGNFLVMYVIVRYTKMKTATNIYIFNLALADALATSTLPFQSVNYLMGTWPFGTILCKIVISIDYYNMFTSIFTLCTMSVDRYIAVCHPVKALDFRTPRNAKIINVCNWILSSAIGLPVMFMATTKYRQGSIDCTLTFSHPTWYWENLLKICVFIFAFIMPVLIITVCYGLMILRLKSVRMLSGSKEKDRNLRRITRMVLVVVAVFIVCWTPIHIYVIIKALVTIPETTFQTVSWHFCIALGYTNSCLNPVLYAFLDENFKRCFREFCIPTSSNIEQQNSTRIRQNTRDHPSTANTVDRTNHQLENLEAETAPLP

How the values were obtained:
ORL1 receptor = ORL1 receptor (Homo sapiens, UniProt P41146); test: ORL1 receptor binding assay with 3H-nociceptin/orphanin FQ, membranes of recombinant CHO-ORL1 cells
human μ-opiate receptor = human μ-opiate receptor (Homo sapiens, UniProt P35372); test: μ-opiate receptor binding, [3H]-naloxone displacement, CHO-K1 membrane preparation
[1] = read-out: ORL1 human Ki, No. 1-49

`CN(C)C1(Cc2ccccc2)CCC2(CC1)NCCc1c2[nH]c2ccccc12` (centres unmarked) was tested, and the “ORL1/μ Ratio calculated as Ki(μ)/Ki(ORL1)” value (ORL1 receptor; No. 1-49) was 0.54, the Ki (ORL1 receptor; [1]) was 1100 pM and the Ki (human μ-opiate receptor; read-out: μ Ki, No. 1-49) was 600 pM.
In the case of `CNC1(c2ccccc2)CCC2(CC1)OCCc1c2[nH]c2ccc(F)cc12` (centres unmarked), the “ORL1/μ ratio calculated as Ki(μ)/Ki(ORL1) (only for measured Ki values)” value (ORL1 receptor; comparison compounds) is reported as 0.1, the Ki (ORL1 receptor; read-out: ORL-1 Ki, printed in the % inhibition column) is reported as 14300 pM and the Ki (human μ-opiate receptor; read-out: μ-opiate-receptor Ki, printed in the % inhibition column) is reported as 1800 pM.
`CN(C)C1(c2ccccc2)CCC2(CC1)NCCc1c2[nH]c2ccccc12` (centres unmarked) was tested, and the “ORL1/μ Ratio calculated as Ki(μ)/Ki(ORL1)” value (ORL1 receptor; No. 1-49) was 1.38 and the Ki (human μ-opiate receptor; read-out: μ Ki, No. 1-49) was 400 pM.
`CN(C)C1(c2ccsc2)CCC2(CC1)OCCc1c2[nH]c2ccc(F)cc12` (centres unmarked) was tested, and the “ORL1/μ Ratio calculated as Ki(μ)/Ki(ORL1)” value (ORL1 receptor; No. 1-49) was 1.62, the Ki (ORL1 receptor; [1]) was 300 pM and the Ki (human μ-opiate receptor; read-out: μ Ki, No. 1-49) was 600 pM.
In the case of `CN(C)C1(c2cccs2)CCC2(CC1)OCCc1c2[nH]c2ccc(F)cc12` (centres unmarked), the “ORL1/μ Ratio calculated as Ki(μ)/Ki(ORL1)” value (ORL1 receptor; No. 1-49) is reported as 0.82, the Ki (ORL1 receptor; [1]) is reported as 700 pM and the Ki (human μ-opiate receptor; read-out: μ Ki, No. 1-49) is reported as 600 pM.
With `CN(C)C1(c2ccccc2)CCC2(CC1)NCCc1c2[nH]c2ccc(F)cc12` (centres unmarked) the “ORL1/μ Ratio calculated as Ki(μ)/Ki(ORL1)” value (ORL1 receptor; No. 1-49) was 0.51, the Ki (ORL1 receptor; [1]) was 1400 pM and the Ki (human μ-opiate receptor; read-out: μ Ki, No. 1-49) was 700 pM.
In the case of `CN(C)C1(c2cccc(F)c2)CCC2(CC1)NCCc1c2[nH]c2ccccc12` (centres unmarked), the “ORL1/μ Ratio calculated as Ki(μ)/Ki(ORL1)” value (ORL1 receptor; No. 1-49) is reported as 2.22, the Ki (ORL1 receptor; [1]) is reported as 3600 pM and the Ki (human μ-opiate receptor; read-out: μ Ki, No. 1-49) is reported as 8000 pM.
In the case of `CN(C)C1(c2cccs2)CCC2(CC1)OCCc1c2[nH]c2ccccc12` (centres unmarked), the “ORL1/μ Ratio calculated as Ki(μ)/Ki(ORL1)” value (ORL1 receptor; No. 1-49) is reported as 2.07, the Ki (ORL1 receptor; [1]) is reported as 300 pM and the Ki (human μ-opiate receptor; read-out: μ Ki, No. 1-49) is reported as 600 pM.
With `CNC1(c2cccs2)CCC2(CC1)OCCc1c2[nH]c2ccccc12` (centres unmarked) the “ORL1/μ Ratio calculated as Ki(μ)/Ki(ORL1)” value (ORL1 receptor; No. 1-49) was 6.56, the Ki (ORL1 receptor; [1]) was 320 pM and the Ki (human μ-opiate receptor; read-out: μ Ki, No. 1-49) was 2100 pM.
`CN(C)C1(c2ccsc2)CCC2(CC1)OCCc1c2[nH]c2ccccc12` (centres unmarked) was tested, and the “ORL1/μ Ratio calculated as Ki(μ)/Ki(ORL1)” value (ORL1 receptor; No. 1-49) was 1.19, the Ki (ORL1 receptor; [1]) was 600 pM and the Ki (human μ-opiate receptor; read-out: μ Ki, No. 1-49) was 700 pM.
In the case of `CN(C)C1(c2ccccc2)CCC2(CC1)OCCc1c2[nH]c2ccc(O)cc12` (centres unmarked), the “ORL1/μ Ratio calculated as Ki(μ)/Ki(ORL1)” value (ORL1 receptor; No. 1-49) is reported as 0.7, the Ki (ORL1 receptor; [1]) is reported as 1600 pM and the Ki (human μ-opiate receptor; read-out: μ Ki, No. 1-49) is reported as 1100 pM.
